The values below come from US20250042857A1, “SOS1 Inhibitor With Pyrido-Fused Six-Membered Ring Structure” (HAIHE BIOPHARMA CO., LTD., priority 2021, published 2025).

Sequences of proteins named here, by UniProt entry; tags and fusion partners are left off. A change or cut given only in a name is not applied to a line headed by its entry.
UniProt Q07889, whole entry, stated change not applied: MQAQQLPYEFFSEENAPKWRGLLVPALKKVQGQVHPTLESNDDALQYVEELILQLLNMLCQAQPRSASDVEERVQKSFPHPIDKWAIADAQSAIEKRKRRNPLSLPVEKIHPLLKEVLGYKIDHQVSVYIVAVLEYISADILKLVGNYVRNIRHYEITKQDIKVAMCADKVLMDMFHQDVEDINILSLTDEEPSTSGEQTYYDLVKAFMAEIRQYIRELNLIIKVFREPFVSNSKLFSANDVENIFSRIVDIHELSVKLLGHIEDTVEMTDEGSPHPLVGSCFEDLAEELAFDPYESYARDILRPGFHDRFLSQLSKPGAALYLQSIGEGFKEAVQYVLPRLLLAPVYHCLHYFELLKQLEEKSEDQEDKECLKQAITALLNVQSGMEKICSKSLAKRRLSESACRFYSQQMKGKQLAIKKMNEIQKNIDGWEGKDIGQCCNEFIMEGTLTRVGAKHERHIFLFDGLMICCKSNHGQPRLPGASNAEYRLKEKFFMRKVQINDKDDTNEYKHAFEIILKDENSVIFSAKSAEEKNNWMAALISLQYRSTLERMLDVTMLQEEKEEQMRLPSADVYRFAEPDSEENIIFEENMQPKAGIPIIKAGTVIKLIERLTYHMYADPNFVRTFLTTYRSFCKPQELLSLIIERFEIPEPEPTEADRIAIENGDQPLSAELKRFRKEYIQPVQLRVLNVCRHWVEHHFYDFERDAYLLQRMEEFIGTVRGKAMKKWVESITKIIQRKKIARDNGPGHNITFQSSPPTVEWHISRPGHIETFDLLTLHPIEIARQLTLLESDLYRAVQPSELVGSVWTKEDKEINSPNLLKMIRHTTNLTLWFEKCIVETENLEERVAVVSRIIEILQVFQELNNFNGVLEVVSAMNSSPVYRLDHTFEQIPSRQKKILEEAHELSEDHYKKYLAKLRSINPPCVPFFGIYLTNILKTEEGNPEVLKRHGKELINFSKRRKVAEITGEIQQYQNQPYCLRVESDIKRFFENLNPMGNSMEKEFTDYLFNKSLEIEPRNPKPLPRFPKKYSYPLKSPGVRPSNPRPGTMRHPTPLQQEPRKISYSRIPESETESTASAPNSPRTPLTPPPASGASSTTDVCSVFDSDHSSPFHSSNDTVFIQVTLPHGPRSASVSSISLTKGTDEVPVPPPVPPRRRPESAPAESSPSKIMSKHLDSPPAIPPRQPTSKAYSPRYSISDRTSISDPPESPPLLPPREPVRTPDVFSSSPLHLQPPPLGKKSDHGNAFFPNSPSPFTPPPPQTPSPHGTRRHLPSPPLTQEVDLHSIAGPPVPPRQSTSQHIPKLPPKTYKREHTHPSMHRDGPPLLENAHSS

Structures are written as SMILES.

Assay [1] has as its target KRAS-G12C/SOS1 (Homo sapiens (Human), UniProt Q07889). Nature of the assay: Detection of inhibitory effects of compounds on KRAS-G12C/SOS1 (KRASG12C/SOS binding kit, HTRF). To be noted: read-out: IC50, inhibitory activity on interaction of KRAS-G12C/SOS1, Em665/620. The text has this:
Experimental objective: The inhibitory effects of the tested compounds on KRAS-G12C/SOS1 were detected. IC50 was used to characterize the inhibitory ability of the compounds on the KRAS-G12C/SOS1. The lower IC50 value indicated the stronger inhibitory ability. BI-3406 was used as a positive control compound.
Experimental reagents: KRASG12C/SOS binding kit (Cisbio, cat. 63ADK000CB16PEG); DMSO (Sigma, cat. D8418-1L); and 384-well white plate (PerkinElmer, cat. 6007290)
• 1. Preparation of compounds: the test compounds were dissolved in 100% DMSO to obtain 10 mM stock solutions and the stock solutions were stored in a refrigerator in the dark. • 2. Kinase reaction process:
Preparation of compounds: the test compounds had the concentration of 5,000 nM and diluted in a 384-well plate into a 100% DMSO solution at the 200-fold final concentration, and the compounds were diluted 3-fold with 10 concentrations. 50 nL of the compounds at the 200-fold final concentration were transferred to the plate of interest, the 384-well plate, using a dispenser Echo 550. 50 nL of 100% DMSO was added to each negative control well and positive control well.
A Tag1-SOS1 solution at the 4-fold final concentration was prepared using a diluent buffer.
2.5 μL of the Tag1-SOS1 solution at the 4-fold final concentration was added to the 384-well plate.
A Tag2-KRAS-G12C solution at the 4-fold final concentration was prepared using the diluent buffer.
2.5 μL of the Tag2-KRAS-G12C solution at the 4-fold final concentration was respectively added into compound wells and the positive control wells; and 2.5 μL of the diluent buffer was added to the negative control wells.
The 384-well plate was centrifuged at 1,000 rpm for 30 seconds, shaken and mixed uniformly, and incubated at room temperature for 15 minutes.
An Anti-Tag1-TB3+ solution at the 1-fold final concentration and an Anti-Tag2-XL665 solution at the 1-fold final concentration were prepared using a detection buffer, the two solutions were mixed uniformly to obtain a Mix solution, and 5 μL of the Mix solution was added into each well.
The 384-well plate was centrifuged at 1,000 rpm for 30 seconds, shaken and mixed uniformly, and incubated at 4° C. for 120 minutes.
Em665/620 was read using an Envision microplate reader.
Inhibition %=(Max signal−Compound signal)/(Max signal−Min signal)×100 Calculation formula • wherein the Min signal was the mean value of the negative control wells, and the Max signal was the mean value of the positive control wells.
A dose-response curve was fitted using the log value of the concentration as an X axis and the percentage of the inhibitory rate as a Y axis by using the log(inhibitor) vs. response-variable slope of an analytical software GraphPadPrism5, thereby obtaining the IC50 value of each compound on an enzyme activity.

In assay [2] the test system is p-ERK of PC-9 cells. Kind of assay: p-ERK HTRF assay in PC-9 cells. To be noted: read-out: IC50, inhibitory activity on p-ERK of PC-9 cells, PC-9 lung cancer cells, 1 hour treatment. On the procedure:
IC50 Values of Compounds Determined by p-ERK HTRF Assay in PC-9 Cells
Experimental objective: an inhibitory effect of the test compounds on the phosphorylation of PC-9ERK of lung cancer cells at a cellular level was evaluated by detecting the phosphorylation of ERK.
• PRMI 1640 medium (Invitrogen-11875093) • 0.25% pancreatin (Invitrogen-25200056) • Phosphoric acid buffer salt solution (PBS, pH 7.4) (Invitrogen-10010023) • Double-antibody (PS) (Invitrogen-15140122) • Fetal bovine serum (FBS) (Gibco-10091148) • Trypan blue (Gibco-15250061) • 10-cm culture dish (Corning-430167) • 10-mL pipette (Costar-4488) • Pipettor (Sartorius-17009031) • 15-mL centrifuge tube (Corning-430052) • 50-mL centrifuge tube (Corning-430829) • Cryotube (Thermo-377267) • 1.5-mL EP tube (Axygen-MCT-150-C-S) • Cell incubator (Thermo-371) • Microscope (Olympus-CKX41) • Centrifuge (Flying Pigeon-TDL-80-2B) • Cell counter (Countstar-IC-1000) • Envision (Perkin Elmer) • Spark 10M (TECAN) • Phospho-ERK1/2 (Thr202/Tyr204) Experimental kit (Cisbio, Cat. No. 64AERPEG) • PC-9 cells: RPMI1640+10% FBS+1% PS
• 1) PBS, 0.25% pancreatin, and a cell culture medium were placed in a water-bath kettle at 37° C. for preheating; • 2) cells were observed under a microscope, a fusion degree was evaluated, and no bacterial and fungi pollution was confirmed; • 3) a culture solution was removed, the cells were washed with 5 mL of PBS and digested with 2 mL of the 0.25% trypsin, the digestion was terminated with 10 mL of the fresh cell culture medium, a culture dish was rinsed, and the cells were transferred to a 15-mL centrifuge tube; • 4) the collected cells were centrifuged at 1,000 rpm for 5 minutes; • 5) after the centrifugation, the supernatant was discarded, the cells were resuspended in 5 mL of the cell culture medium, 20 μL of the resuspended cells were aspirated, and the number and viability of viable cells were recorded; • 6) the cell culture medium was used and the cell density was adjusted (PC-9:10,000 cells/well, and 45 μL per well); • 7) in a 384-well plate, 45 μL of a cell suspension per well was transferred according to an experimental design figure; and • 8) the cells were incubated overnight at 37° C. and 5% CO2.
• 1) The compounds were diluted from the stock concentration to 10 mM with 100% DMSO (Trametinib was diluted to 1 mM), then 3-fold diluted into 10 points (5 μL of the diluted compounds with the concentration of 10 mM were transferred to 10 μL of the DMSO in an LDV plate), and centrifuged at 1,000 rpm/min for 1 minute; • 2) 5 μL of the diluted compounds of step 1) were transferred to an inter plate 1 containing 45 μL of the cell culture medium (the compounds were diluted from 1,000× to 100×); • 3) 5 μL of the diluted compounds of step 2) were transferred to an inter plate 2 containing 45 μL of the cell culture medium (the compounds were diluted from 100× to 10×); • 4) 5 μL of the compounds were pipetted from the inter plate 2 into a cell culture plate (the compounds were diluted from 10 folds to 1 fold), the final concentrations of the test compounds were 10,000 nM, 3333.33 nM, 1111.11 nM, 370.37 nM, 123.46 nM, 41.15 nM, 13.72 nM, 4.57 nM, 1.52 nM, and […], the solution was centrifuged at 1,000 rpm/min for 1 minute, and the final content of the DMSO was 0.1%; and • 5) the cells were treated in an incubator at 37° C. for 1 hour. […]
Background: Time-resolved FRET reads energy transfer from a long-lived donor to a nearby acceptor.

Take `C[C@@H](Nc1ccnc2cnc(C3(O)CCN(C(=O)CO)CC3)cc12)c1cccc(C(C)(F)F)c1F`: the IC50 in assay [1] was less than 100 nM; in assay [2], less than 300 nM.

As to `Cc1nc(N2CCS(=O)(=O)CC2)cc2c(N[C@H](C)c3cccc(C(F)F)c3F)ccnc12`, the IC50 in assay [1] is less than 100 nM; in assay [2], 300 to 1000 nM.

`CC(=O)NC1CCC(O)(c2cc3c(N[C@H](C)c4cccc(C(F)F)c4F)ccnc3cn2)CC1` (single isomer, unassigned): the IC50 in assay [1] was less than 100 nM; in assay [2] it was less than 300 nM.

Consider `CNC(=O)C1CCC(O)(c2cc3c(N[C@H](C)c4cccc(C(F)F)c4F)ccnc3cn2)CC1` (single isomer, unassigned), for which the IC50 in assay [2] was less than 300 nM.

As for `COC1(c2cc3c(N[C@H](C)c4cccc(C(F)F)c4F)ccnc3cn2)CCC(N(C)C)CC1` (single isomer, unassigned), in assay [1], the IC50 is less than 100 nM.

Regarding `COC1CCC(O)(c2cc3c(N[C@H](C)c4cccc(C(F)F)c4F)ccnc3cn2)CC1` (single isomer, unassigned), the IC50 in assay [1] is less than 100 nM; in assay [2], less than 300 nM.

As to `COC1CCC(OC)(c2cc3c(N[C@H](C)c4cccc(C(F)F)c4F)ccnc3cn2)CC1` (single isomer, unassigned), the IC50 was less than 100 nM in assay [1] and 300 to 1000 nM in assay [2].

Take `COc1nc(C2(O)CCC(O)CC2)cc2c(N[C@H](C)c3cccc(C(F)F)c3F)cc(C)nc12` (single isomer, unassigned): the IC50 in assay [1] is less than 100 nM; in assay [2], 300 to 1000 nM.

With `C[C@@H](Nc1ccnc2cnc(C3(O)CCC(C)(O)CC3)cc12)c1cccc(C(F)F)c1F` (single isomer, unassigned), the IC50 in assay [1] was less than 100 nM; in assay [2] it was less than 300 nM.

As for `C[C@@H](Nc1ccnc2cnc(C3(O)CCC(O)CC3)cc12)c1cccc(C(F)F)c1F` (single isomer, unassigned) [B-80-P1], the IC50 in assay [1] was less than 100 nM; in assay [2] it was less than 300 nM.

In the case of `C[C@@H](Nc1ccnc2cnc(C3(O)CCC(O)CC3)cc12)c1cccc(C(F)F)c1F` (single isomer, unassigned) [B-80-P2], the IC50 in assay [1] was less than 100 nM; in assay [2] it was 300 to 1000 nM.

For the molecule `C[C@@H](Nc1ccnc2cnc(C3(O)CCC(C(C)(C)O)CC3)cc12)c1cccc(C(F)F)c1F` (single isomer, unassigned) [B-101-P1], the IC50 in assay [1] was in the range of 100 to 500 nM.

On to `C[C@@H](Nc1ccnc2cnc(C3(O)CCC(C(C)(C)O)CC3)cc12)c1cccc(C(F)F)c1F` (single isomer, unassigned) [B-101-P2], for which the IC50 in assay [2] was less than 300 nM.

In the case of `C[C@@H](Nc1ccnc2cnc(C3(O)CCC(CO)CC3)cc12)c1cccc(C(F)F)c1F` (single isomer, unassigned) [B-102-P1], in assay [2], the IC50 was in the range of 300 to 1000 nM.

With `C[C@@H](Nc1ccnc2cnc(C3(O)CCC(CO)CC3)cc12)c1cccc(C(F)F)c1F` (single isomer, unassigned) [B-102-P2], the IC50 in assay [2] was less than 300 nM.
